Binding of CDR-mutated scFvs to a peptide of the spike HR2 region

The target is the same throughout: PDVDLGDISGINAS, from the HR2 region of SARS-CoV-2 spike.

Parent: Ab-91, a human scFv built as VL, a 15-residue (Gly4Ser)3 linker, VH. Only the CDRs of the heavy chain vary.
VL: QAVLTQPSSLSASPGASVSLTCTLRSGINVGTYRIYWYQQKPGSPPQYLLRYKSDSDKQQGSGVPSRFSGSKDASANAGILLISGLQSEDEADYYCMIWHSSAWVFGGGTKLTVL
VH: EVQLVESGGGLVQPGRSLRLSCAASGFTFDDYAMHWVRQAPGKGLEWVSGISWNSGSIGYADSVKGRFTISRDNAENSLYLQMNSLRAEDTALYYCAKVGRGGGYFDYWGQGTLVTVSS

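The starting antibody came from a phage panning campaign against this peptide. Variants in AAYL51 differ from the parent at up to three CDR positions; double and triple changes were sampled at random. The scFvs were displayed on barcoded MATa yeast, the peptide on MATalpha yeast. Pairs that bind mate more often; barcode pairs of the diploids are counted by sequencing. Scores were corrected for input abundance and mapped to Kd with protein pairs of known affinity run in the same pool. Each pool was mated in three replicate cultures.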

Sequences are complete VH domains.
This list gathers variants with a substitution at S55 (VH, numbered from residue 1).
Numbers give log10(Kd / nM), so 0 is 1 nM and 3 is 1 µM. Smaller is tighter.
Averages over replicates are reported, and they cover detected replicates only.
A pair that was not seen in that replicate is written "nd"; this usually means weak binding, but a binder can also be missed.
Nonspecific signal, from three strains lacking the peptide, appeared in 21% of pairings of library AAYL51, centred on 4.54 (5% of these signals below 3.26); values are not corrected for it. For each scFv, signals with the empty controls are counted beside the result, with their mean in brackets.
For reference, the parent read 1.86 as the reference entry and 0.88 as a member of this library.

VH,"log10 Kd, replicates",mean log10 Kd (nM),empty controls
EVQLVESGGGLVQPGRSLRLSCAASGNTFDDHAMHWVRQAPGKGLEWVSGISWNCGSIGYADSVKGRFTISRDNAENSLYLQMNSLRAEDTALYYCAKVGRGGGYFDYWGQGTLVTVSS,4.11 / nd / nd,4.11,2 of 9 (3.93)
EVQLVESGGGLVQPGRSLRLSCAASGFTFDDYAMHWVRQAPGKGLEWVSGISICEGSIGYADSVKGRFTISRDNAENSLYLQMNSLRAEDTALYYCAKVGRGGGYFDYWGQGTLVTVSS,nd / nd / nd,nd,3 of 9 (4.42)
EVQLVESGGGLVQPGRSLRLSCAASGFTRDDYAMHWVRQAPGKGLEWVSGISWNHGSIGYADSVKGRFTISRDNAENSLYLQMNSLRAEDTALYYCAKRGRGGGYFDYWGQGTLVTVSS,5.18 / 4.55 / nd,4.86,1 of 9 (3.99)
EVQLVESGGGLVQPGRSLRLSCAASGFTFDDYAMHWVRQAPGKGLEWVSGISWNYGSIGYADSCKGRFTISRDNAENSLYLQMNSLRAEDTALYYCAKVGRGGGNFDYWGQGTLVTVSS,nd / nd / nd,nd,1 of 9 (3.58)
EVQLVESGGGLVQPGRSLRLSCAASGFSFDDYAWHWVRQAPGKGLEWVSGISWNTGSIGYADSVKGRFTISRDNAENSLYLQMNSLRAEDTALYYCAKVGRGGGYFDYWGQGTLVTVSS,nd / 5.09 / 4.05,4.57,0 of 9
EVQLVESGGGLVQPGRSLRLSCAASGFTFDDYAMHWVRQAPGKGLEWVSVISWNCGSIGYADSVKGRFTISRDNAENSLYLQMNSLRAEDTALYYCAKVGRGGVYFDYWGQGTLVTVSS,nd / 5.54 / nd,5.54,1 of 9 (4.09)
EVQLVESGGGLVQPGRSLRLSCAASGFTFDDYAMHWVRQAPGKGLEWVSGISWNFPSIGYADSVKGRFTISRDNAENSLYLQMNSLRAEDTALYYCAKNGRGGGYFDYWGQGTLVTVSS,4.81 / 5.87 / 5.37,5.35,9 of 9 (5.13)
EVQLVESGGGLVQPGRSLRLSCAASGFIFDDYAMHWVRQAPGKGLEWVSGILWNLGSIGYADSVKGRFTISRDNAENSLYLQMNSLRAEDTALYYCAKVGRGGGYFDYWGQGTLVTVSS,nd / nd / nd,nd,0 of 9
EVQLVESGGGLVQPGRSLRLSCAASGFTFDDYAMHWVRQAPGKGLEWVSGISWNRGSIGYADSVKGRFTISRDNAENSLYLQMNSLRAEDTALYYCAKVGRMGGYFDYWGQGTLVTVSS,5.61 / 3.75 / nd,4.68,4 of 9 (4.94)
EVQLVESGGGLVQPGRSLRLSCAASCFTFDDYAMHWVRQAPGKGLEWVSGISWNGGSIGEADSVKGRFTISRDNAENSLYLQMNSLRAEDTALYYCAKVGRGGGYFDYWGQGTLVTVSS,nd / nd / nd,nd,0 of 9
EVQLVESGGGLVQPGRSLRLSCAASGKTFDDYAMHWVRQAPGKGLEWVSHISWNYGSIGYADSVKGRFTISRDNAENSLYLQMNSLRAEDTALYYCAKVGRGGGYFDYWGQGTLVTVSS,nd / nd / nd,nd,1 of 9 (3.06)
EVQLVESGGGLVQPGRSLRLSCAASGFTFDDYAMHWVRQAPGKGLEWVSGISWNCGSIGYADSVRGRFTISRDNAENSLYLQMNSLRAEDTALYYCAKVGRGWGYFDYWGQGTLVTVSS,nd / 4.76 / 5.32,5.04,1 of 9 (4.40)
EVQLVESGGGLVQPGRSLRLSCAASGFTFYDYAMHWVRQAPGKGLEWVSGISWNPGSIGYADSCKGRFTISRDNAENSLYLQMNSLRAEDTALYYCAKVGRGGGYFDYWGQGTLVTVSS,5.06 / nd / 5.14,5.10,6 of 9 (4.83)
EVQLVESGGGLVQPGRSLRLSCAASGFTFDDYAMHWVRQAPGKGLEWVSGISWNCGSIGYADSVKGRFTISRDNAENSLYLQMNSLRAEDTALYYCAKVGRGGGYYDKWGQGTLVTVSS,4.50 / nd / nd,4.50,1 of 9 (5.29)
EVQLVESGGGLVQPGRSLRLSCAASGFTFDDYTMHWVRQAPGKGLEWVSGISENFGSIGYADSVKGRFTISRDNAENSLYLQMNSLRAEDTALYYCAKVGRGGGYFDYWGQGTLVTVSS,nd / 5.06 / nd,5.06,7 of 9 (4.77)

2 of these entries, quoted again:

VH	log10 Kd, replicates	mean log10 Kd (nM)	empty controls
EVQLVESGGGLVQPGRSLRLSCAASGFTFDDYTMHWVRQAPGKGLEWVSGISENFGSIGYADSVKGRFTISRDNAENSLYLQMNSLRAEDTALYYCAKVGRGGGYFDYWGQGTLVTVSS	nd / 5.06 / nd	5.06	7 of 9 (4.77)
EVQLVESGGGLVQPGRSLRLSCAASGFSFDDYAWHWVRQAPGKGLEWVSGISWNTGSIGYADSVKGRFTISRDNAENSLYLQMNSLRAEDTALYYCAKVGRGGGYFDYWGQGTLVTVSS	nd / 5.09 / 4.05	4.57	0 of 9

Reference: Engelhart et al. 2022, doi:10.1038/s41597-022-01779-4. File: FLAb, binding data.